## Permeability data for macrocyclic peptides

Values of Townsend et al. 2020, doi:10.26434/chemrxiv.13335941.v1, as listed in CycPeptMPDB.

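The data file gives no further conditions (lipid, pH, time, direction or concentration), and values from different papers need not be comparable. Other peptides of the study may be missing here. Entries at the database's floor value (log10 P of -10) are not listed.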

PAMPA measures passive passage through an artificial lipid membrane. Values are log10 P with P in cm/s, so -5 is more permeable than -7.

- CC(C)C[C@@H]1C(=O)N2CCC[C@@H]2C(=O)N(Cc2ccccc2)CC(=O)N[C@@H](Cc2ccccc2)C(=O)N2CCC[C@@H]2C(=O)N(C)[C@H](C)C(=O)N(C)[C@@H](CC(C)C)C(=O)N1C: PAMPA -6.20 (log10 cm/s)
- CC(C)C[C@H]1NC(=O)[C@@H](C)NC(=O)[C@@H]2CCCN2C(=O)[C@H](Cc2ccccc2)NC(=O)[C@H](CC(C)C)N(C)C(=O)[C@H]2CCCN2C(=O)CN(Cc2ccccc2)C1=O: PAMPA -5.71 (log10 cm/s)
- CCCN1CC(=O)N(C)[C@H](CC(C)C)C(=O)N[C@H](CC(C)C)C(=O)N2CCC[C@H]2C(=O)N[C@H](CC(C)C)C(=O)N[C@@H](Cc2ccccc2)C1=O: PAMPA -4.89 (log10 cm/s)
- CC(C)C[C@H]1NC(=O)CN(Cc2ccccc2)C(=O)[C@H](C)N(C)C(=O)[C@H]2CCCN2C(=O)[C@H](Cc2ccccc2)NC(=O)CN(Cc2ccccc2)C(=O)[C@@H]2CCCN2C1=O: PAMPA -6.01 (log10 cm/s)
- CC(C)C[C@@H]1C(=O)N[C@@H](Cc2ccccc2)C(=O)N2CCC[C@H]2C(=O)N(C)[C@H](C)C(=O)N[C@H](CC(C)C)C(=O)N[C@H](CC(C)C)C(=O)N2CCC[C@@H]2C(=O)N1C: PAMPA -5.42 (log10 cm/s)
- CC(C)C[C@H]1NC(=O)C[C@H](Cc2ccccc2)NC(=O)[C@H]2CCCN2C(=O)[C@H](Cc2ccccc2)NC(=O)[C@H](CC(C)C)N(C)C(=O)[C@H]2CCCN2C(=O)[C@@H](CC(C)C)NC1=O: PAMPA -6.01 (log10 cm/s)
- CC(C)C[C@@H]1C(=O)N2CCC[C@@H]2C(=O)N[C@H](CC(C)C)C(=O)N[C@@H](Cc2ccccc2)C(=O)N2CCC[C@@H]2C(=O)N(C)[C@@H](C)C(=O)N(C)[C@H](CC(C)C)C(=O)N1C: PAMPA -4.97 (log10 cm/s)
- CC(C)C[C@@H]1NC(=O)[C@@H](CC(C)C)NC(=O)C[C@H](Cc2ccccc2)NC(=O)[C@@H]2CCCN2C(=O)[C@H](Cc2ccccc2)NC(=O)[C@@H](CC(C)C)NC(=O)[C@@H]2CCCN2C1=O: PAMPA -5.81 (log10 cm/s)
- CC(C)C[C@@H]1NC(=O)[C@@H](C)NC(=O)[C@H]2CCCN2C(=O)[C@H](Cc2ccccc2)NC(=O)[C@H](CC(C)C)N(C)C(=O)[C@@H]2CCCN2C(=O)CN(Cc2ccccc2)C1=O: PAMPA -5.90 (log10 cm/s)
- CC(C)C[C@@H]1C(=O)N(Cc2ccccc2)CC(=O)N2CCC[C@@H]2C(=O)N[C@H](CC(C)C)C(=O)N[C@@H](Cc2ccccc2)C(=O)N2CCC[C@H]2C(=O)N(C)[C@@H](C)C(=O)N1C: PAMPA -5.41 (log10 cm/s)
- CC(C)C[C@@H]1C(=O)N2CCC[C@@H]2C(=O)N(C)[C@H](CC(C)C)C(=O)N[C@@H](Cc2ccccc2)C(=O)N2CCC[C@@H]2C(=O)N(C)[C@H](C)C(=O)N(Cc2ccccc2)CC(=O)N1C: PAMPA -5.62 (log10 cm/s)
- CC(C)C[C@@H]1NC(=O)[C@@H]2CCCN2C(=O)[C@H](CC(C)C)NC(=O)[C@@H](CC(C)C)N(C)C(=O)[C@H](C)N(C)C(=O)[C@H]2CCCN2C(=O)[C@H](Cc2ccccc2)NC1=O: PAMPA -5.63 (log10 cm/s)
- CC(C)C[C@@H]1NC(=O)[C@H]2CCCN2C(=O)CN(Cc2ccccc2)C(=O)[C@H](CC(C)C)N(C)C(=O)[C@@H](C)N(C)C(=O)[C@H]2CCCN2C(=O)[C@H](Cc2ccccc2)NC1=O: PAMPA -6.35 (log10 cm/s)
- CC(C)C[C@@H]1C(=O)N(C)[C@H](CC(C)C)C(=O)N2CCC[C@H]2C(=O)N(C)[C@@H](CC(C)C)C(=O)N[C@@H](Cc2ccccc2)C(=O)N[C@@H](C)C(=O)N1C: PAMPA -5.16 (log10 cm/s)
- CC(C)C[C@@H]1C(=O)N(C)[C@H](CC(C)C)C(=O)N2CCC[C@H]2C(=O)N(C)[C@@H](CC(C)C)C(=O)N[C@@H](Cc2ccccc2)C(=O)N2CCC[C@H]2C(=O)N(C)[C@H](C)C(=O)N1C: PAMPA -4.99 (log10 cm/s)
- CC(C)C[C@@H]1NC(=O)[C@@H](CC(C)C)NC(=O)[C@H](C)N(C)C(=O)[C@H](Cc2ccccc2)NC(=O)[C@H](CC(C)C)N(C)C(=O)[C@H]2CCCN2C1=O: PAMPA -4.89 (log10 cm/s)

Excerpt, the opening 2 entries:

SMILES	PAMPA (log10 cm/s)
CC(C)C[C@@H]1C(=O)N2CCC[C@@H]2C(=O)N(Cc2ccccc2)CC(=O)N[C@@H](Cc2ccccc2)C(=O)N2CCC[C@@H]2C(=O)N(C)[C@H](C)C(=O)N(C)[C@@H](CC(C)C)C(=O)N1C	-6.20
CC(C)C[C@H]1NC(=O)[C@@H](C)NC(=O)[C@@H]2CCCN2C(=O)[C@H](Cc2ccccc2)NC(=O)[C@H](CC(C)C)N(C)C(=O)[C@H]2CCCN2C(=O)CN(Cc2ccccc2)C1=O	-5.71